Experiment: log P value (octanol:water)
Assay type: physicochemical
Settings: water/n-octanol
Text: The partition coefficient (P) is the ratio of concentrations of a compound in a mixture of two immiscible solvents at equilibrium. This ratio is therefore a comparison of the solubility of the solute in these two liquids. In the chemical and pharmaceutical sciences, both phases usually are solvents. Most commonly, one of the solvents is water, while the second is hydrophobic such as 1-octanol.
Log P=log 10(Partition Coefficient)
Partition Coefficient,P=[organic]/[aqueous]

log P: 4.42
SMILES: CC(=O)OC1CCCCC1C(C)(C)C (stereo not shown) [AGRUMEX LC]
